Legend:
Type in all cases: binding
[1] = biological target: T1, CHRM2 (Homo sapiens, UniProt P08172); assay: NanoBRET screen HiBiT-CHRM2 in HEK293; settings: tracer 0.1μM
T1 construct: purchased Promega (in-house HiBiT-GPCR construct library, NanoBRET)
Experimental: (§1) Each tracer candidate was screened across the entire library of HiBiT-GPCR constructs using NanoBRET as the detection modality. As depicted in Figure 4A, the specificity of interactions was evaluated through decrease in BRET due to competitive displacement of a bound tracer by excess parental compound. Each tracer was analyzed for binding to each HiBiT-GPCR fusion in the absence and in the presence of competing parental compound. Briefly, HEK293 cells were transfected with HiBiT-GPCR constructs diluted into promoterless DNA to reduce expression and maximize translocation to the cell surface. Each tracer candidate was then screened at concentrations of 1 μM and 0.1 μM across cells expressing these fusions. Cells were treated for 1.5 h with tracer either alone or in the presence of 20 μM competing parental compound (i.e., control). BRET was measured upon addition of purified LgBiT and subsequent complementation with HiBiT genetically fused to a GPCR. The specificity of interactions was assessed through a decrease in BRET signal due to competitive displacement of the bound tracer. To further gauge the robustness of these interactions, the fold response over the control (i.e., BRETtracer/BRETcontrol) was calculated. We chose a 1.5-fold response, which translates to ≥7-fold signal over noise as the minimal threshold required to score an interaction as positive. […]. […]

Chains of the proteins cited; added tags and fusions are not shown. Lines headed by an entry give the natural chain unless they say otherwise; changes in a name come on top.
UniProt P08172, whole entry: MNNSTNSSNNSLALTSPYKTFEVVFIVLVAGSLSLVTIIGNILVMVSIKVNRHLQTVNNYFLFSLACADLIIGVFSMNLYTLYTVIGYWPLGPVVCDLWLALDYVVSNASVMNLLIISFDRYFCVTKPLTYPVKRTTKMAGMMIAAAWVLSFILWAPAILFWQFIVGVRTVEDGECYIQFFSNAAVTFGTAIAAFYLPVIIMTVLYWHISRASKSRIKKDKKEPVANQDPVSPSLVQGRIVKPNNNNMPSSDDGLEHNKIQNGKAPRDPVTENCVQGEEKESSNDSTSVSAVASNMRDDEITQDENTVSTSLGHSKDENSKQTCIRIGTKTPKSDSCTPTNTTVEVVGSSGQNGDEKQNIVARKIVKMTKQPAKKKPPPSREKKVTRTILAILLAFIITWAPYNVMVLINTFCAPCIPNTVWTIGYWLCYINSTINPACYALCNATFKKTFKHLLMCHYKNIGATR
UniProt Q9GZQ6: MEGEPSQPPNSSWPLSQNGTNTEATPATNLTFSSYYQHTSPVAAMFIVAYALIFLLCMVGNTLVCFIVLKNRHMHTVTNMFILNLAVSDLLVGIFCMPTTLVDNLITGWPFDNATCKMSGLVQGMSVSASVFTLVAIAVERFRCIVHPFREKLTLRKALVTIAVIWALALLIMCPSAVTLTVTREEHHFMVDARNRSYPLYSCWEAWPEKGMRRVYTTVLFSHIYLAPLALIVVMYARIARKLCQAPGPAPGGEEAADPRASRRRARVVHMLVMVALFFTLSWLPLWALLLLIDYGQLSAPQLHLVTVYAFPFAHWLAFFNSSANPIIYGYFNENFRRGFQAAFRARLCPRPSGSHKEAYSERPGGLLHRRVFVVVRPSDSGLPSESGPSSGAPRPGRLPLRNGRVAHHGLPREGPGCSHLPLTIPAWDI
UniProt P25100, whole entry: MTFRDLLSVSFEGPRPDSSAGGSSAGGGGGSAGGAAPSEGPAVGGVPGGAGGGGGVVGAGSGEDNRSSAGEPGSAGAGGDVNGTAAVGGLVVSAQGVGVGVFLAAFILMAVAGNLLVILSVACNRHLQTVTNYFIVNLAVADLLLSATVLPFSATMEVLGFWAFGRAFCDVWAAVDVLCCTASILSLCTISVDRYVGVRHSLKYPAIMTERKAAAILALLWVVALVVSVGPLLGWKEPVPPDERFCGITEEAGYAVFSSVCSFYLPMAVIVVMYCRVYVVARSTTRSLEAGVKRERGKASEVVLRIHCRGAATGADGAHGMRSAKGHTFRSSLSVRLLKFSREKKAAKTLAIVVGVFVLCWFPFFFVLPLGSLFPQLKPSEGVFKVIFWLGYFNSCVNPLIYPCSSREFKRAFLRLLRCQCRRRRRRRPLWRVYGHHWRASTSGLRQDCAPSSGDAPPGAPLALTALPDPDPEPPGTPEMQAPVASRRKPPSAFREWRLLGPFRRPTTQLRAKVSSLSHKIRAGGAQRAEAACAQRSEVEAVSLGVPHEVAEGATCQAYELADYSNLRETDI

[2] = biological target: T2, P2RY8 (Homo sapiens, UniProt Q86VZ1); assay: NanoBRET screen HiBiT-P2RY8 in HEK293; settings: tracer 0.1μM
T2 construct: purchased Promega (in-house HiBiT-GPCR construct library, NanoBRET)
Experimental: as §1

[3] = biological target: T3, NPFFR1 (Homo sapiens, UniProt Q9GZQ6); assay: NanoBRET screen HiBiT-NPFFR1 in HEK293; settings: NPFFR1; tracer 1μM
T3 construct: purchased Promega (in-house HiBiT-GPCR construct library, NanoBRET)
Experimental: Each tracer candidate was screened across the entire library of HiBiT-GPCR constructs using NanoBRET as the detection modality. As depicted in Figure 4A, the specificity of interactions was evaluated through decrease in BRET due to competitive displacement of a bound tracer by excess parental compound. Each tracer was analyzed for binding to each HiBiT-GPCR fusion in the absence and in the presence of competing parental compound. Briefly, HEK293 cells were transfected with HiBiT-GPCR constructs diluted into promoterless DNA to reduce expression and maximize translocation to the cell surface. Each tracer candidate was then screened at concentrations of 1 μM and 0.1 μM across cells expressing these fusions. Cells were treated for 1.5 h with tracer either alone or in the presence of 20 μM competing parental compound (i.e., control). BRET was measured upon addition of purified LgBiT and subsequent complementation with HiBiT genetically fused to a GPCR. The specificity of interactions was assessed through a decrease in BRET signal due to competitive displacement of the bound tracer. To further gauge the robustness of these interactions, the fold response over the control (i.e., BRETtracer/BRETcontrol) was calculated. We chose a 1.5-fold response, which translates to ≥7-fold signal over noise as the minimal threshold required to score an interaction as positive. […]. Below we highlight the screening results obtained for our exemplary fluorescent tracers based on Clozapine, Amitriptyline and AZD1283.
HiBiT-GPCR DNA constructs were diluted in 10 mM Tris pH 8 to a final concentration of 0.01 μg/μL, arrayed in 96-well plates and stored at −20 °C. For transfection, HEK293 cells were suspended in Opti-MEM (without phenol red) supplemented with 2% fetal bovine serum (Seradigm) and 100 units/mL penicillin–streptomycin (Gibco) at a final concentration of 220,000 cells/mL and dispensed into white 96-well plates at 90 μL/well. Subsequent transfections and screens were carried using an Agilent Bravo Automated Liquid Handling Platform. First, the 96-well HiBiT DNA arrays were diluted 25-fold in Opti-MEM (without serum or phenol red) to a final concentration of 0.0004 μg/μL and 20 μL of the diluted DNAs were transferred into new 96-well plates. Next, promoterless carrier DNA (1 μg/μL) was diluted 25-fold (0.04 μg/μL) and then dispensed into the diluted arrays at 20 μL/well. Following brief mixing, Viafect transfection reagent (Promega) diluted 16-fold into Opti-MEM was dispensed into the plates at 40 μL/well. After mixing by pipetting, plates were incubated for 10 min on the pipetting station deck. The DNA-transfection reagent complexes were then added to plates containing cells. To facilitate the screen, 10 μL of DNA-transfection reagent complexes were added in duplicates to the top 4 and bottom 4 rows, resulting in two identical 48-well arrays per plate. Plates with transfected cells were incubated for 18–20 h at 37 °C/5% CO2. A screen of each tracer across the entire library using two different concentrations requires duplicate plates of transfected cells. Depending on the number of tracers being screened, transfections can be scaled up using the same ratios. The next day, for each tracer, four 20× screening solutions in tracer dilution buffer (Promega) were prepared: two duplicates at final concentration of 20 μM and two duplicates at a final concentration of 2 μM. A competing unmodified compound was added to one of each duplicate at a final concentration of 400 μM. […]

[4] = biological target: T4, ADRA1D (Homo sapiens, UniProt P25100); assay: NanoBRET screen HiBiT-ADRA1D in HEK293; settings: tracer 0.1μM
T4 construct: purchased Promega (in-house HiBiT-GPCR construct library, NanoBRET)
Experimental: Each tracer candidate was screened across the entire library of HiBiT-GPCR constructs using NanoBRET as the detection modality. As depicted in Figure 4A, the specificity of interactions was evaluated through decrease in BRET due to competitive displacement of a bound tracer by excess parental compound. Each tracer was analyzed for binding to each HiBiT-GPCR fusion in the absence and in the presence of competing parental compound. Briefly, HEK293 cells were transfected with HiBiT-GPCR constructs diluted into promoterless DNA to reduce expression and maximize translocation to the cell surface. Each tracer candidate was then screened at concentrations of 1 μM and 0.1 μM across cells expressing these fusions. Cells were treated for 1.5 h with tracer either alone or in the presence of 20 μM competing parental compound (i.e., control). BRET was measured upon addition of purified LgBiT and subsequent complementation with HiBiT genetically fused to a GPCR. The specificity of interactions was assessed through a decrease in BRET signal due to competitive displacement of the bound tracer. To further gauge the robustness of these interactions, the fold response over the control (i.e., BRETtracer/BRETcontrol) was calculated. We chose a 1.5-fold response, which translates to ≥7-fold signal over noise as the minimal threshold required to score an interaction as positive.
HiBiT-GPCR DNA constructs were diluted in 10 mM Tris pH 8 to a final concentration of 0.01 μg/μL, arrayed in 96-well plates and stored at −20 °C. For transfection, HEK293 cells were suspended in Opti-MEM (without phenol red) supplemented with 2% fetal bovine serum (Seradigm) and 100 units/mL penicillin–streptomycin (Gibco) at a final concentration of 220,000 cells/mL and dispensed into white 96-well plates at 90 μL/well. Subsequent transfections and screens were carried using an Agilent Bravo Automated Liquid Handling Platform. […]

Measured: NanoBRET Fold Response

Cc1cc2c(s1)Nc1ccccc1N=C2N1CCN(CCCNC(=O)CCOCCOCCOCCOCCNC(=O)CCc2ccc3n2[B-](F)(F)[N+]2=C(c4ccc[nH]4)C=CC2=C3)CC1 [Olanzapine-a-2-NB590]
1.03: all assays above
